Source: patent US8633322B2, “Alkynyl derivatives useful as DPP-1 inhibitors” (Janssen Pharmaceutica NV, priority 2009, dated 2014)

Amino acid sequences for entries named in this document (tags omitted). Residues count along the entry.
UniProt P53634, 25-463 limits assumed: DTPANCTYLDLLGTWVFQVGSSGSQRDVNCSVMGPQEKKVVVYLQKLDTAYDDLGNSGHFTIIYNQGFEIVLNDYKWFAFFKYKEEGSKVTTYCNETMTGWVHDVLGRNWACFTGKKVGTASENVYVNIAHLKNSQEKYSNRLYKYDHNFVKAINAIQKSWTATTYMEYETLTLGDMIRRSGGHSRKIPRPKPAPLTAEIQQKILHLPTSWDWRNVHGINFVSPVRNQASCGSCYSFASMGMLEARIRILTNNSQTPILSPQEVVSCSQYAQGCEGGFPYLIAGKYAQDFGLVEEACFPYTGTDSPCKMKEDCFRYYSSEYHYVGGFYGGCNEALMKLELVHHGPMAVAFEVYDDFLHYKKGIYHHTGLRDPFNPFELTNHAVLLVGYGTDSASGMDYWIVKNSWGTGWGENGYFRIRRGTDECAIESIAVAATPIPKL

Target: recombinant human DPP-1 (Cathepsin C) (Homo sapiens, UniProt P53634)
Assay: DPP-1 Inhibition Assay (In Vitro), fluorogenic substrate GR-AMC
Details: read-out: DPP-1 Inhibition IC50; room temperature; 0.15 nM DPP-1, 10 uM GR-AMC, pH 7.0; average where tested multiple times
Method: Test compounds were assessed for DPP-1 (Cathepsin C) inhibitory activity using a fluorogenic substrate, GR-AMC (Glycine-Arginine-amino-4-methylcoumarin, Bachem, 1-1215). The amount of amino-methylcoumarin released is proportional to the DPP-1 activity, and the reaction is monitored kinetically with a Molecular Devices plate reader using black 96-well plates.
All compounds were tested under room temperature conditions. The assay buffer consisted of 50 mM HEPES, pH 7.0, 100 mM NaCl, 2 mM glutathione (GSH), and 0.002% TWEEN 20. GSH and TWEEN 20 were added to the buffer fresh daily. […]
Additions to a 96-well black Costar 3915 plates were as follows: 90 μL of 11 μM GR-AMC, 5 μL test compound (followed by mixing), and 5 μL 3 nM DPP1 to start the reaction. Fluorescent reactions were monitored kinetically at 360 nm excitation, 440 nm emission on a Molecular Devices Spectramax XPS reader. The Softmax Pro software of the reader determined the initial velocity of the selected data (the first 3-5 minutes of the reaction), and the best linear regression fit of the initial kinetic data. […]
Representative compounds of the present invention were tested according to the procedure as described above, with results as listed in Table 2, below. Additionally, Table 2 below lists the measured mass for said representative compounds of the present invention, more particularly the mass of the MH^+ ion.

In the case of `CC[C@H](N)C(=O)NCCCC#Cc1c(COC)ccc2ccccc12`, the IC50 is reported as 23 µM.
